# Measurements reported in PMC10150492.
# Sequences of proteins named here, by UniProt entry; tags and fusion partners are left off.
# UniProt Q9Y3Z3, whole entry T592A: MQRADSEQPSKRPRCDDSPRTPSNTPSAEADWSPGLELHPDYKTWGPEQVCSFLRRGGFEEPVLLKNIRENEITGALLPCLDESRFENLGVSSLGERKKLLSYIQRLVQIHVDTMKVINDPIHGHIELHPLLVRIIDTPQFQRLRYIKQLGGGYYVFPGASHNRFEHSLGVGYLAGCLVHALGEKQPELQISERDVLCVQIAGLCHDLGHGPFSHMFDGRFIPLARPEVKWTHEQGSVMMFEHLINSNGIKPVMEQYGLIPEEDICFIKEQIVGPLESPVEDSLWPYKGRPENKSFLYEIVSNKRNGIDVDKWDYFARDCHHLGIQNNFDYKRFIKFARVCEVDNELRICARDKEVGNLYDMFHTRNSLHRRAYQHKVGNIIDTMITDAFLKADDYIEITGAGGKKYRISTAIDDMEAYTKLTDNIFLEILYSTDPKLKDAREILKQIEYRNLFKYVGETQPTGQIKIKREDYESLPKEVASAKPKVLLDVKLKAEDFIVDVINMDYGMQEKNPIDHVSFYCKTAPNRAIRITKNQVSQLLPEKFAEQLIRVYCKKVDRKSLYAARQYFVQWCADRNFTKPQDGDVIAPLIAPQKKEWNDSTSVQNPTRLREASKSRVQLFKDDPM
# UniProt Q9Y3Z3, whole entry T592C: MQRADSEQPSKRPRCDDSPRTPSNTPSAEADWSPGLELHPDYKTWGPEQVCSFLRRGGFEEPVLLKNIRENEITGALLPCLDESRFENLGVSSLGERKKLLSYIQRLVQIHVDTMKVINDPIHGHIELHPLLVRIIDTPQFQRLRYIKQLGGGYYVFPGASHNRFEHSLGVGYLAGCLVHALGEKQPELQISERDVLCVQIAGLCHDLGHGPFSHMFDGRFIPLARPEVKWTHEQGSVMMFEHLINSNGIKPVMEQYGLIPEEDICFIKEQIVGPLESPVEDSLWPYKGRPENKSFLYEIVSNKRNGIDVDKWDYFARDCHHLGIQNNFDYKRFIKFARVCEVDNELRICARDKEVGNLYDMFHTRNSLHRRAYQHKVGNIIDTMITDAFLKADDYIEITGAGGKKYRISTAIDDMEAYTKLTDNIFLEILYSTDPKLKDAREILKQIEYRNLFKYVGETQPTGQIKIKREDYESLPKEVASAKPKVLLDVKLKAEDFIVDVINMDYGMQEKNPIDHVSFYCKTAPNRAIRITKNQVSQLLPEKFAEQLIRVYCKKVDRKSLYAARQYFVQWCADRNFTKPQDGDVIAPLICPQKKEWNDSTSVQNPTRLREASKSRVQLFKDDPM
# UniProt Q9Y3Z3, whole entry T592D: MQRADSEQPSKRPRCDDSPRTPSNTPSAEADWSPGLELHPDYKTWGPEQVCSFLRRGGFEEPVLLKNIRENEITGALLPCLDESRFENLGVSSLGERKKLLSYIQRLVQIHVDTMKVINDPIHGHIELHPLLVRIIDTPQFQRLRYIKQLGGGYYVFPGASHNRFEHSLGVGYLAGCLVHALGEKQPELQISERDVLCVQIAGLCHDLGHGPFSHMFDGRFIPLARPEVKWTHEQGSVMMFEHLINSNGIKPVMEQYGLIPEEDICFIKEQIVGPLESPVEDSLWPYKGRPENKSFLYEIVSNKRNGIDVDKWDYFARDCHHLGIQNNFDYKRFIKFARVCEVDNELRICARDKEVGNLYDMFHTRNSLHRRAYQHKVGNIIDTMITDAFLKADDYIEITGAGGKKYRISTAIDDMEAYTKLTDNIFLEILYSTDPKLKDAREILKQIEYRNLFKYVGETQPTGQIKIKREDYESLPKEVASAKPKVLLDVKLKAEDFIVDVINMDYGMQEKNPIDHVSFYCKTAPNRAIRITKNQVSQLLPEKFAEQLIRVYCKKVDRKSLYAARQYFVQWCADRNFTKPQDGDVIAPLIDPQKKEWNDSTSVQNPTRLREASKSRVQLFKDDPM
# UniProt Q9Y3Z3, whole entry T592E: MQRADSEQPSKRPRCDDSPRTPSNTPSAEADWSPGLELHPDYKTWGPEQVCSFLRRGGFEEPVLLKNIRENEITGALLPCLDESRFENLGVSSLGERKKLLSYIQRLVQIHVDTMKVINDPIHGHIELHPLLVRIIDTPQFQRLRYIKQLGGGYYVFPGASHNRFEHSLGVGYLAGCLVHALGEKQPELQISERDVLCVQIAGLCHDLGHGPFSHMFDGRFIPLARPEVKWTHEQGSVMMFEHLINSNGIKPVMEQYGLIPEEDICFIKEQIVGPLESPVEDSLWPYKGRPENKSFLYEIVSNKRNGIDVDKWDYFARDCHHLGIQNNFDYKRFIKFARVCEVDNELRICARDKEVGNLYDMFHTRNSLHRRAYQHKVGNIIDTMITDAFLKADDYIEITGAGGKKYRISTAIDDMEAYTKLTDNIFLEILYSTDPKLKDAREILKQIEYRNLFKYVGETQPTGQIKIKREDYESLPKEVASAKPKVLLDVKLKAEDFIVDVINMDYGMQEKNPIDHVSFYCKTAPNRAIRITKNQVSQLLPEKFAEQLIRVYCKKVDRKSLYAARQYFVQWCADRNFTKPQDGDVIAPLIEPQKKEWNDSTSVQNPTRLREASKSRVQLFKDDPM
# UniProt Q9Y3Z3, whole entry T592I: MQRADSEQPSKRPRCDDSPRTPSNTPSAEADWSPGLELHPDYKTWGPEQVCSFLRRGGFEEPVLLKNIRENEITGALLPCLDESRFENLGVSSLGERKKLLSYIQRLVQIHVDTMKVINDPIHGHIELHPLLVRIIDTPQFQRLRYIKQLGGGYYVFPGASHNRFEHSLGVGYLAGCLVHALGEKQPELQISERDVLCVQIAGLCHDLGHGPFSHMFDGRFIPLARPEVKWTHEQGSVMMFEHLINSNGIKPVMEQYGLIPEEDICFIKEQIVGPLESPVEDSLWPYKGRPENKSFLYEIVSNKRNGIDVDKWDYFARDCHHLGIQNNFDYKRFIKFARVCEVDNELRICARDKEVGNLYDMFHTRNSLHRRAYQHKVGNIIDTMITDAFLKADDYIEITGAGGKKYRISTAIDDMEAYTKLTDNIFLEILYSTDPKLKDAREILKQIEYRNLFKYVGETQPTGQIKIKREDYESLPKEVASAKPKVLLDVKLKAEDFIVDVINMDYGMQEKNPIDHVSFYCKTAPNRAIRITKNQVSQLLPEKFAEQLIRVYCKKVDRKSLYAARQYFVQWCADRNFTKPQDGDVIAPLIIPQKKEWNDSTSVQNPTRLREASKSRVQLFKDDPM
# UniProt Q9Y3Z3, whole entry T592K: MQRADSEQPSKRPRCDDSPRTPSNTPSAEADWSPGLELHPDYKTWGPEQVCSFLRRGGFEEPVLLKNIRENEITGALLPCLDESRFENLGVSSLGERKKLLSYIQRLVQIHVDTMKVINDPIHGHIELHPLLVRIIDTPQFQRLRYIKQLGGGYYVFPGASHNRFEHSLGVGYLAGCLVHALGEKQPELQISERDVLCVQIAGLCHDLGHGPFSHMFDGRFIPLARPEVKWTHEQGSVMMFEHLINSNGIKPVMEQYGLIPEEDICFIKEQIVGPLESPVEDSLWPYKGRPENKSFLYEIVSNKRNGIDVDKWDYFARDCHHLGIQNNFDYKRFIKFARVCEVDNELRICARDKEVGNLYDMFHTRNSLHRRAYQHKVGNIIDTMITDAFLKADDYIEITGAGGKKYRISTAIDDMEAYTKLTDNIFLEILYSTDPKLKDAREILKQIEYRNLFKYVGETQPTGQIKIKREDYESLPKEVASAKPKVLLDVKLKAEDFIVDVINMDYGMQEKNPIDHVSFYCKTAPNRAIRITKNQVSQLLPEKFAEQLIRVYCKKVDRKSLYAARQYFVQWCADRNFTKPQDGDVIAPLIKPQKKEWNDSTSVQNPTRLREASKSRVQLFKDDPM
# UniProt Q9Y3Z3, whole entry T592L: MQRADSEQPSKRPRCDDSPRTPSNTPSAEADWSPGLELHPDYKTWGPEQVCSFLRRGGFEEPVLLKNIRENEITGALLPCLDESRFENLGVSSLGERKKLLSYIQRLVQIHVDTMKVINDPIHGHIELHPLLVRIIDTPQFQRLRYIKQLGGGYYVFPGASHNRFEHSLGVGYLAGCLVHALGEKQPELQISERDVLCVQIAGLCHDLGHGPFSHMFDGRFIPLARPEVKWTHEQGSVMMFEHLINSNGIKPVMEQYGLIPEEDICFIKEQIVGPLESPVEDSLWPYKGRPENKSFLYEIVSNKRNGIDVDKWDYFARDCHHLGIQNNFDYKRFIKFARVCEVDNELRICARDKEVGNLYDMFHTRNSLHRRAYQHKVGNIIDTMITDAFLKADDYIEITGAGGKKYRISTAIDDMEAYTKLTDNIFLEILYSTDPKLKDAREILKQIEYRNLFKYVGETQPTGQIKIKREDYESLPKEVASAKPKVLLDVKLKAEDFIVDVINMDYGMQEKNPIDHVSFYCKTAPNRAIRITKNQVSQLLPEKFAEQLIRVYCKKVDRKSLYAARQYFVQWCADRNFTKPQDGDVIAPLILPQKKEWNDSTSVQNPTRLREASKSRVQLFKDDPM
# UniProt Q9Y3Z3, whole entry T592S: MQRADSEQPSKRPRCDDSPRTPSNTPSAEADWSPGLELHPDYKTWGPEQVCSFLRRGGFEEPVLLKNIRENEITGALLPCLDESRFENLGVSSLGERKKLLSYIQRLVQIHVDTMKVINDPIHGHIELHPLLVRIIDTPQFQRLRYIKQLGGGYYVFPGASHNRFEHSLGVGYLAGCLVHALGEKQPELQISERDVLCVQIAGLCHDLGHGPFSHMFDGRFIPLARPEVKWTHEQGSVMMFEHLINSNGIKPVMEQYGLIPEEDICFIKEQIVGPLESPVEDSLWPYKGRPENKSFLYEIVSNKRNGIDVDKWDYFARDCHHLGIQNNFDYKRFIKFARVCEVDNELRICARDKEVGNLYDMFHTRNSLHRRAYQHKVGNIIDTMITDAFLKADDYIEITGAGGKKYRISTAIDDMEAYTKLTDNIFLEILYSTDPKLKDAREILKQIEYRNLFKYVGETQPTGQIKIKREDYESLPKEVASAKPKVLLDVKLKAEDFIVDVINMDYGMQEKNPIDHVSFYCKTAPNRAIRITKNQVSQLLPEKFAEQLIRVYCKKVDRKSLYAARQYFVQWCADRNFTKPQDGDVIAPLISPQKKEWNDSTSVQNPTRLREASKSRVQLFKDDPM
# UniProt Q9Y3Z3, whole entry T592V: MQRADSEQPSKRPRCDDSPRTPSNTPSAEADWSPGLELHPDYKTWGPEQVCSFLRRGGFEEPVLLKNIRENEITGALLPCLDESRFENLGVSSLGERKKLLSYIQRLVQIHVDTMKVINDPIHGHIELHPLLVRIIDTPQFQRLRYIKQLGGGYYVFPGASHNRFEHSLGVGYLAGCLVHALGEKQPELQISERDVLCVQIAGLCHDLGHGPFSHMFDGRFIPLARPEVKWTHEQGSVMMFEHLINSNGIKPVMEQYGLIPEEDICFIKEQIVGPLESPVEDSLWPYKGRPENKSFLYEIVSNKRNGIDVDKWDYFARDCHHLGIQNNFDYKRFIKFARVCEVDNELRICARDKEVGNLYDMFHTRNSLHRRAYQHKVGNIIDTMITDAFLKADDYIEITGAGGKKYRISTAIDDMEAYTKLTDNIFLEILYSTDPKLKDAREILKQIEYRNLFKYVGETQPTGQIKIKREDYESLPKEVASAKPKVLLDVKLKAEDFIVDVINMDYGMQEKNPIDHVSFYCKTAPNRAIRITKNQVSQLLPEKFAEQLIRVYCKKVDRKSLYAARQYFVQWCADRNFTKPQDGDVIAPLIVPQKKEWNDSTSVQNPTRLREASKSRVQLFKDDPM
# Molecular target: SAMHD1 1-626 (UniProt Q9Y3Z3)
# Assay: SEC-MALLS tetramer stability time course
# Conditions: reference: wild type; sites T592
row,Substance,other: tetramer decay rate kdec
1,SAMHD1 1-626 (from UniProt Q9Y3Z3) T592A,stronger; reference 7.02
2,SAMHD1 1-626 (from UniProt Q9Y3Z3) T592C,stronger; reference 7.02
3,SAMHD1 1-626 (from UniProt Q9Y3Z3) T592D,weaker; reference 7.02
4,SAMHD1 1-626 (from UniProt Q9Y3Z3) T592E,same; reference 7.02
5,SAMHD1 1-626 (from UniProt Q9Y3Z3) T592I,stronger; reference 7.02
6,SAMHD1 1-626 (from UniProt Q9Y3Z3) T592K,weaker; reference 7.02
7,SAMHD1 1-626 (from UniProt Q9Y3Z3) T592L,weaker; reference 7.02
8,SAMHD1 1-626 (from UniProt Q9Y3Z3) T592S,stronger; reference 7.02
9,SAMHD1 1-626 (from UniProt Q9Y3Z3) T592V,stronger; reference 7.02
